Columns and labels:
Homo sapiens [1] = organism: Homo sapiens; assay: Protein binding in 10% human plasma; conditions: 10% plasma, read-out: PPB (converted)
Homo sapiens [2] = organism: Homo sapiens; assay: Protein binding in 100% human plasma; conditions: 100% plasma, read-out: PPB (converted)

Q: For `CN(C)Cc1nc2c(sc3ccc(-c4ccc(O)cc4)cc32)c(=O)[nH]1`, which fraction unbound (Homo sapiens [1]) is on record?
A: Its fraction unbound is 0.32.

Q: And the fraction unbound (Homo sapiens [2])?
A: The fraction unbound was 0.08.

From ChEMBL document CHEMBL1154637 (J Med Chem, 2009)
